Data: paper PMC6759397 (Journal of pharmaceutical sciences, 2019)

By UniProt entry, the sequences of proteins in these tests, tags left out. Where a name states a change or a piece, a line headed by the entry shows the natural chain unless it says otherwise.
UniProt Q9NPD5: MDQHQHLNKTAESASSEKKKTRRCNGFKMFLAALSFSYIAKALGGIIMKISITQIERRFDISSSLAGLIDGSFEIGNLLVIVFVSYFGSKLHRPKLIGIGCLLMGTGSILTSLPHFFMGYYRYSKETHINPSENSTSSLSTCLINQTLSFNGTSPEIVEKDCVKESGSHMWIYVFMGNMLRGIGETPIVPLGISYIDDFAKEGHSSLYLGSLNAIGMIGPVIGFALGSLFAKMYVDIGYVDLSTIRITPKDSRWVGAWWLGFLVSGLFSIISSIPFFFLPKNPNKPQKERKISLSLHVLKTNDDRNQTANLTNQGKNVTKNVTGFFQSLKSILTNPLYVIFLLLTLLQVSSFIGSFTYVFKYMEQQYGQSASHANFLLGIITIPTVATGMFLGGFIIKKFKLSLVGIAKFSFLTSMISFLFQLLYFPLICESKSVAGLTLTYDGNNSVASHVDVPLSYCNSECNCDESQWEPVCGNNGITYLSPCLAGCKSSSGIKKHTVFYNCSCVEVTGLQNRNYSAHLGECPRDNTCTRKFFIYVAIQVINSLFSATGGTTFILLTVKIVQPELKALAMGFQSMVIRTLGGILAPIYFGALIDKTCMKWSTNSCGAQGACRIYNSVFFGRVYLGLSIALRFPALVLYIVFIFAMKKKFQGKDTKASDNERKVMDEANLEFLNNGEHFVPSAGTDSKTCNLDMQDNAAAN
UniProt Q9Y6L6: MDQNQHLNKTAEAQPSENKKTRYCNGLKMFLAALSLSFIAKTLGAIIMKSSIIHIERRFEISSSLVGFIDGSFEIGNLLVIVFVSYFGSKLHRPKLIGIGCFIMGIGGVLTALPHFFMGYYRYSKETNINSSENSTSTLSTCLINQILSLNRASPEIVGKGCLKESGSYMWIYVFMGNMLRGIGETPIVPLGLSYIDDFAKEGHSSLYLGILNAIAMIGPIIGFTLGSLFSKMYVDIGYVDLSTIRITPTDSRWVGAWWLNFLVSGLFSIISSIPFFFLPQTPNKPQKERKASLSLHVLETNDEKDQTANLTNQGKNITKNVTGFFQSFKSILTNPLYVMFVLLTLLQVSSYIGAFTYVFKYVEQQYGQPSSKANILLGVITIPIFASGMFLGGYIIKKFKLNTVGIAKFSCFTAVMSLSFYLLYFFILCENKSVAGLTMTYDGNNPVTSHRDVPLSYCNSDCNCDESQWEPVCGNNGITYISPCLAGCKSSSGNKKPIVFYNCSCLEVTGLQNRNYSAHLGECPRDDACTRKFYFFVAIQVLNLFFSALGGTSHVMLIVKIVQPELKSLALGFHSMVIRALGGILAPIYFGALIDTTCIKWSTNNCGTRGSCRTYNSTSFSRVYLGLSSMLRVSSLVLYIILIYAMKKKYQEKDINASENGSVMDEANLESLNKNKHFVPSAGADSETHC

Assays:
[1] = target: OATP1B3 (Homo sapiens, UniProt Q9NPD5); assay: Inhibition of OATP1B3-mediated [3H]-CCK-8 transport in HEK293-OATP1B3 cells; details: 60 min
[2] = target: OATP1B1 (Homo sapiens, UniProt Q9Y6L6); details: [3H]-E1S; 60 min

Structure (SMILES): CO[C@H]1C[C@@H]2CC[C@@H](C)[C@@](O)(O2)C(=O)C(=O)N2CCCC[C@H]2C(=O)O[C@H]([C@H](C)C[C@@H]2CC[C@@H](O)[C@H](OC)C2)CC(=O)[C@H](C)/C=C(\C)[C@@H](O)[C@@H](OC)C(=O)[C@H](C)C[C@H](C)/C=C/C=C/C=C/1C [SIR, sirolimus]
- decrease of IC50, pre+co-incubation vs co-incubation [1]: ~ 2.7 fold
- decrease of IC50, pre+co-incubation vs co-incubation [2]: ~1.3 fold
